The chains behind the UniProt entries cited, without tags or fusion partners.
UniProt Q05397, whole entry, looked up: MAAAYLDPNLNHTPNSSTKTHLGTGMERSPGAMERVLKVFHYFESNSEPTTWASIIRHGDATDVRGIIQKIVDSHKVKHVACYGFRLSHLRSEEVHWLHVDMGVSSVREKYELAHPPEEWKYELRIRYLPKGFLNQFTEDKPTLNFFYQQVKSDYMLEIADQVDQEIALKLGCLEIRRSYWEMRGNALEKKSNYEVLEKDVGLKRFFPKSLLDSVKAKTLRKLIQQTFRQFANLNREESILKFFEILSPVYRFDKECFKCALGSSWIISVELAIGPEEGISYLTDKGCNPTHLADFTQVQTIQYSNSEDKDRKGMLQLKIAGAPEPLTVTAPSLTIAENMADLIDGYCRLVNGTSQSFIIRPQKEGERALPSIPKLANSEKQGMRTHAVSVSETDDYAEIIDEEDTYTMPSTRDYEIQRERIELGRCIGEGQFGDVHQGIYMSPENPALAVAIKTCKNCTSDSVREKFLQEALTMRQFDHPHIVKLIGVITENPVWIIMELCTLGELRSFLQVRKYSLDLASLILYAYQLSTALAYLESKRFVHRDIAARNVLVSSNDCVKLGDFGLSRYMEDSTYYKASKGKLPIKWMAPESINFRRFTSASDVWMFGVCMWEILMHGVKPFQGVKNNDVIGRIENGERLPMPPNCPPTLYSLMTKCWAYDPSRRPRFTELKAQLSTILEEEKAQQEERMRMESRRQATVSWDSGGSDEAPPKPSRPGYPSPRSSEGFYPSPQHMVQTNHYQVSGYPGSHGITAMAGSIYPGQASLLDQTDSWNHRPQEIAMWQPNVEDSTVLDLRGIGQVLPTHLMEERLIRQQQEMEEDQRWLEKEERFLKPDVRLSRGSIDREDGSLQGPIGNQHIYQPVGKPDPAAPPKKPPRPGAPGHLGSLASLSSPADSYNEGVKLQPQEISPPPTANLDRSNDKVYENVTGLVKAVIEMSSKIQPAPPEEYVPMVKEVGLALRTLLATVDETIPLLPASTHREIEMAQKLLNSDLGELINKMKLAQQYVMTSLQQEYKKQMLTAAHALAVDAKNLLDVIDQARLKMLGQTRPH

According to ChEMBL document CHEMBL4699600, “Design, Synthesis, and Biological Evaluation of Covalent Inhibitors of Focal Adhesion Kinase (FAK) against Human Malignant Glioblastoma” (J Med Chem, 2020):

target: Focal adhesion kinase 1 (Homo sapiens, UniProt Q05397); settings: Sf9, time min 2-120

Q: Which Kinact does the source give for `C=CC(=O)NCCNc1c(NCc2ccc(Nc3ncc(C(F)(F)F)c(Nc4ccccc4C(=O)NC)n3)cc2)c(=O)c1=O` here?
A: Its Kinact is 0.047 min⁻¹.

Q: `C=CC(=O)NCCNc1c(NCc2ccc(Nc3ncc(Cl)c(Nc4ccccc4C(=O)NC)n3)cc2)c(=O)c1=O` was tested. Which Kinact did it give?
A: Its Kinact is 0.16 min⁻¹.

Q: Which Kinact does the source give for `CNC(=O)c1ccccc1Nc1nc(Nc2ccc(CNc3c(NCCNC(=O)/C(C#N)=C/C(C)C)c(=O)c3=O)cc2)ncc1Cl` here?
A: The Kinact was 0.25 min⁻¹.
